Data published in ChEMBL document CHEMBL1153392, “Identification of a metabolically stable triazolopyrimidine-based dihydroorotate dehydrogenase inhibitor with antimalarial activity in mice” (J Med Chem, 2009).

Tested on: Plasmodium berghei
Assay: Inhibition of Plasmodium berghei ANKA DHODH
How it was run: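 Truncated soluble enzyme expressed in E. coli and purified. DCIP (0.12 mM) reduction followed at 600 nm with 5-10 nM enzyme, 0.2 mM L-dihydroorotate and 0.02 mM CoQD in 100 mM HEPES pH 8.0, 150 mM NaCl, 10% glycerol, 0.1% Triton, 20 °C. Triplicate points per concentration; IC50 fitted.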

With `Cc1cc(Nc2cccc(Cl)c2)n2ncnc2n1` the IC50 was 31 µM.
